From patent US20140178318A1, “NOVEL COMPOUNDS” (DSM IP ASSETS B.V., priority 2009, published 2014)

Columns and labels:
[1] = Comparative example: solubility of BMDBM in 1:1 mixture of C12-15 alkyl benzoate and other UV-filter; settings: solvent alone, baseline repeated under each UV-filter column
[2] = Solubility of BMDBM and BEMT in C12-15 alkyl benzoate and in 1:1 mixtures with PG-UVA1/PG-UVA2
[3] = e.g. C12-15 alkyl benzoate, dibutyl adipate or diisopropyl sebacate; typical value; cited from earlier work
[4] = Reduction of solvent necessary to dissolve solid UV-filter (BMDBM); type: physicochemical
Excerpt: a.) 2.0 g of diisopropyl sebacate are necessary to solubilize 0.5 g BMDBM. However, only 1.4 g of a 1:1 (w/w) mixture of PG-UVA2 of example 1 and diisopropyl sebacate is needed to dissolve 0.5 g BMDBM resulting in a reduction of the cosmetic solvent necessary to dissolve BMDBM of 65%.
b) 3.0 g of C12-15 alkyl benzoate are necessary to solubilize 0.5 g BMDBM, whereas only 2.0 g of a 1:1 (w/w) mixture of PG-UVA2 of example 2 and C12-15 alkyl benzoate is necessary to dissolve 0.5 g of BMDBM resulting in a reduction of the cosmetic solvent necessary to dissolve BMDBM of 66%.

[5] = C12-15 alkyl benzoate/PG-UVA1 1:1 versus C12-15 alkyl benzoate

Butyl Methoxydibenzoylmethane [BMDBM]
Solubility of BMDBM in C12-15 alkyl benzoate [1]: 14 wt.-%
re-crystallization on storage ([2]; 200 mg BMDBM in 800 mg C12-15 alkyl benzoate/PG-UVA1 1:1, 1 month at RT): no re-crystallization occurred
Δ solubility relating to cosmetic solvent (BMDBM) ([2]; C12-15 alkyl benzoate/PG-UVA1 1:1): +13 wt.-%
Increase of solubility BMDBM [2, 5]: +42%
Δ solubility of BMDBM [2, 5]: +6 wt.-%
Solubility in C12-15 alkyl benzoate ([2]; saturation of the solvent, content in supernatant by HPLC): 14 wt.-%
solubility in the conventional cosmetic oils [3]: less than 20%
amount of C12-15 alkyl benzoate necessary to solubilize 0.5 g BMDBM ([4]; C12-15 alkyl benzoate alone): 3.0 g
amount of diisopropyl sebacate necessary to solubilize 0.5 g BMDBM ([4]; diisopropyl sebacate alone): 2.0 g
